Data from ChEMBL document CHEMBL4732109, “Structural modifications in the distal, regulatory region of histamine H receptor antagonists leading to the identification of a potent anti-obesity agent” (Eur J Med Chem, 2021).

Protein sequences, listed by entry. Tags and fused reporters are not part of them. Lines headed by an entry give the natural chain unless they say otherwise; changes in a name come on top.
UniProt Q9Y5N1: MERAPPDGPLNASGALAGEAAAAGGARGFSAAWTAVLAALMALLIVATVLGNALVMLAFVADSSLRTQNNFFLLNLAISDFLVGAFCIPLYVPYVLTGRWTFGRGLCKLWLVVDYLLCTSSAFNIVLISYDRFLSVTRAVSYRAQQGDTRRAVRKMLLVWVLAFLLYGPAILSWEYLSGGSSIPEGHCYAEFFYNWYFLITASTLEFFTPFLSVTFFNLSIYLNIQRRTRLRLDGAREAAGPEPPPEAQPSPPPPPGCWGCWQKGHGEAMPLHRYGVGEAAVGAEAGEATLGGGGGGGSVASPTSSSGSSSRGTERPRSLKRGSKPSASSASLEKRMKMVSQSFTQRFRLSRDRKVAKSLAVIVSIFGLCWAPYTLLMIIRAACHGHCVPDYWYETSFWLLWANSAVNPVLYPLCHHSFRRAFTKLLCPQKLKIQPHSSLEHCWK

Target: Histamine H3 receptor (Homo sapiens, UniProt Q9Y5N1)
Test: Displacement of [3H]UR-PI294 from human SP-FLAG-tagged H3R expressed in HEK293T cells measured after 60 to 120 mins by liquid scintillation counting analysis
Assay type: cell-based

Ki: 48.9 nM
SMILES: O=C(c1ccc(OCCCc2cnc[nH]2)cc1)C1CC1 [CIPROXIFAN]
